Values quoted from earlier work in patent publication US8846697B2, “Purine analogs” (The Regents of the University of California, priority 2006, dated 2014).

Chains of the proteins cited; added tags and fusions are not shown. Residues count along the entry.
UniProt Q9NYK1, 27-1049, species assumed: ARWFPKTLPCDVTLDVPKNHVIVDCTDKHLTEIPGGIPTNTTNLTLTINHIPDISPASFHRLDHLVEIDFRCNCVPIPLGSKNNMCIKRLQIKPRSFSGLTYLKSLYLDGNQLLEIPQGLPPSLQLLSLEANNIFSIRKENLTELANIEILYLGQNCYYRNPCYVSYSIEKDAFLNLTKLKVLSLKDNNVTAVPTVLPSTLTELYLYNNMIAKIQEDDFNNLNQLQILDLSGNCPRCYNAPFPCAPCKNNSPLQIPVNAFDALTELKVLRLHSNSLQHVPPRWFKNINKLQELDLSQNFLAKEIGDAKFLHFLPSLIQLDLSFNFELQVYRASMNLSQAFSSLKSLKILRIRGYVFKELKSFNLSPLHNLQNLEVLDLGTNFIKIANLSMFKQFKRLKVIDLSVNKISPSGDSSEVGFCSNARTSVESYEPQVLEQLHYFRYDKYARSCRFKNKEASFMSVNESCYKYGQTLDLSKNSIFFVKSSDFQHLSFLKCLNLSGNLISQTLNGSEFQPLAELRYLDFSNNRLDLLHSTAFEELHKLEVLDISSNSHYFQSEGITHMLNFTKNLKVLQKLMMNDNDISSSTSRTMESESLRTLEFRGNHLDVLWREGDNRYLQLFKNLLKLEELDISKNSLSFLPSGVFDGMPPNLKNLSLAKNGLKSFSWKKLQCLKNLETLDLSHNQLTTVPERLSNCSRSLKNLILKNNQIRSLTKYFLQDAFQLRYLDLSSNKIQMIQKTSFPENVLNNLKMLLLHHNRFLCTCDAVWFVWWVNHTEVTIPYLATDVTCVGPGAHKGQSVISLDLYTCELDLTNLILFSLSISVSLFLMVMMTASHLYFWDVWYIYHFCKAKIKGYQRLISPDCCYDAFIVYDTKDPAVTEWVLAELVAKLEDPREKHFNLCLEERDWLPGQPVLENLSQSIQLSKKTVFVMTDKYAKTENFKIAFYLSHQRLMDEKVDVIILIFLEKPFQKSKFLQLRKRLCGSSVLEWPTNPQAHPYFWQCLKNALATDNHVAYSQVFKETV

Target: TLR7 (Homo sapiens, UniProt Q9NYK1)
Details: cited from earlier work

9-benzyl-2-methoxyethoxy-8-oxoadenine
TLR signalling specificity (in words): signalling exclusively through TLR7
